# Patent US20050004038A1, “Bivalent inhibitors of Glutathione-S-Transferases” (priority 2003, published 2005)
# Sequences of proteins named here, by UniProt entry; tags and fusion partners are left off. Residues count along the entry.
# UniProt P09211, 2-210 limits assumed: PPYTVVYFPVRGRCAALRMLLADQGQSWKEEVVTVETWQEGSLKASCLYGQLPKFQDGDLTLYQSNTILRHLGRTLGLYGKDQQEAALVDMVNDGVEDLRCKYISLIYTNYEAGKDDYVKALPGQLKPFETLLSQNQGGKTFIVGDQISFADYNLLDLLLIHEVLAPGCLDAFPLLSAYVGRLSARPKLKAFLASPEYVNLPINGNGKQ
# UniProt P08263, whole entry: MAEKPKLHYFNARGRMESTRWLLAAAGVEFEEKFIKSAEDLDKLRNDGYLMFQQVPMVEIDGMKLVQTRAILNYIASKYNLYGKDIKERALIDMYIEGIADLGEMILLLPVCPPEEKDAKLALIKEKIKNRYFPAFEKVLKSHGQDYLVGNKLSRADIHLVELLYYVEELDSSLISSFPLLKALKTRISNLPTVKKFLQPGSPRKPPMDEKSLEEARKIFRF
# How the values were obtained:
# [1] = target: human glutathione S-transferase P1-1 (GSTP1-1) (Homo sapiens, UniProt P09211); assay: CDNB assay of GST activity and inhibition, GST P1-1; details: read-out: IC50 GSTP1-1, first value of the cell GSTP1-1/GSTA1-1, 20 nM GST
# [2] = target: human glutathione S-transferase A1-1 (GSTA1-1) (Homo sapiens, UniProt P08263); assay: CDNB assay of GST activity and inhibition, GST A1-1; details: read-out: IC50 GSTA1-1, second value of the cell GSTP1-1/GSTA1-1, 20 nM GST
structure (smiles),measurement,setting,value
C=C(CC)C(=O)c1ccc(OCC(=O)NCCCC(=O)NCc2cccc(C(N)=O)c2)c(Cl)c1Cl,IC50,[1],12.5 µM
same,IC50,[2],13.6 µM
